Experimental data as given in patent US10155749B2, “Substituted benzimidazolium compounds useful in the treatment of respiratory diseases” (Boehringer Ingelheim International GmbH, priority 2015, dated 2018).
pIC50: −log10 of the molar value.

By UniProt entry, the sequences of proteins in these tests, tags left out.
UniProt Q61180, whole entry: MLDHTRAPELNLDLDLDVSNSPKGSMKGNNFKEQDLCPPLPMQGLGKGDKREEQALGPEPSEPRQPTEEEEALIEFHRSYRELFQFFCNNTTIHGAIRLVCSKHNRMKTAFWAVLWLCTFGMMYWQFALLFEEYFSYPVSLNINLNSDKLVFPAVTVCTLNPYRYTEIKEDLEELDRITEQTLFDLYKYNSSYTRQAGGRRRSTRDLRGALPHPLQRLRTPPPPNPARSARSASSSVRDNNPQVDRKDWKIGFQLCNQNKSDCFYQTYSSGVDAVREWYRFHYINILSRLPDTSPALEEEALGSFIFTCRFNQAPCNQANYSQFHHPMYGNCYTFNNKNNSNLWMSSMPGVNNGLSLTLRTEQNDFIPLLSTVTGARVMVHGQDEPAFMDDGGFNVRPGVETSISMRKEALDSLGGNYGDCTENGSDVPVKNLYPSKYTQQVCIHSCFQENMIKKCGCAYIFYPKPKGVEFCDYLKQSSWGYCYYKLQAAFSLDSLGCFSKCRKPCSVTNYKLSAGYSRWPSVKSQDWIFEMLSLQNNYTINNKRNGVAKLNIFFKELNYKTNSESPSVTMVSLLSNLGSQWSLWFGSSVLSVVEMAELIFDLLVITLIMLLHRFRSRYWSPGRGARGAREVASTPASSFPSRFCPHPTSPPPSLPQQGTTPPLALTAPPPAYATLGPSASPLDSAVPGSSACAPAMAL
UniProt Q9WU38, whole entry: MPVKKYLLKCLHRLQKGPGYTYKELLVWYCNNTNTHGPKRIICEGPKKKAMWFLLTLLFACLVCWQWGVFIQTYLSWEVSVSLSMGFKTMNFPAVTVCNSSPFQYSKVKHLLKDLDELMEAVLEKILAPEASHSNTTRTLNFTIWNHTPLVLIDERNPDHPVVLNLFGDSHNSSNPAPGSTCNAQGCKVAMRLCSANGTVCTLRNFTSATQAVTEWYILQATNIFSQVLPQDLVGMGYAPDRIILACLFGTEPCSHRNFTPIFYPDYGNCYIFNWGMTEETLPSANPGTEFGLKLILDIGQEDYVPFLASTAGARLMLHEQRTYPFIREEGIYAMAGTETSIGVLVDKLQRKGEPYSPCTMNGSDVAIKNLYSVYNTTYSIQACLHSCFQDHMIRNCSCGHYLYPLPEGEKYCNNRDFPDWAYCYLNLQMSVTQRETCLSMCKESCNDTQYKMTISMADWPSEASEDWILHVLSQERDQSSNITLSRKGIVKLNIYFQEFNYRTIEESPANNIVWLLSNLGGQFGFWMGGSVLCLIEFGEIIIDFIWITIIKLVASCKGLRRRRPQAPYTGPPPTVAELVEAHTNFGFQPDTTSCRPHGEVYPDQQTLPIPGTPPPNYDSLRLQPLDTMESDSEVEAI
UniProt Q9WU39, whole entry: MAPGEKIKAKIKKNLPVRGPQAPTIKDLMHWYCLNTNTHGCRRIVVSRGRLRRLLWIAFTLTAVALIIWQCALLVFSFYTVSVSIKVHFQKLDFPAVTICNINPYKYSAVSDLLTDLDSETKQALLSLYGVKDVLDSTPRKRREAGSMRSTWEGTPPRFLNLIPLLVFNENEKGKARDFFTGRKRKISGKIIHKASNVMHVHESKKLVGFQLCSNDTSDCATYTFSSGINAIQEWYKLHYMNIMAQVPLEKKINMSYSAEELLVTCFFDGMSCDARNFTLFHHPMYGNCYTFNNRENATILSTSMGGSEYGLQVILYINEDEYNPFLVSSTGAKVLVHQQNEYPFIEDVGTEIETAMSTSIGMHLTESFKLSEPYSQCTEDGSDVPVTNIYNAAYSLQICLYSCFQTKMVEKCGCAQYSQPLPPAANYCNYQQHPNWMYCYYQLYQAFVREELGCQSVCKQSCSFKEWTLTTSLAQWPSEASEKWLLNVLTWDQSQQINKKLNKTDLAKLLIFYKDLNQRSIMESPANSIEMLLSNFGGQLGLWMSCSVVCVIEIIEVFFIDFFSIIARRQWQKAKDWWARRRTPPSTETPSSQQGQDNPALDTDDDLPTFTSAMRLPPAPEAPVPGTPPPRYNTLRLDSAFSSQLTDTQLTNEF

Biological target: ENaC (Epithelial Sodium Channel) (Mus musculus, UniProt Q61180+Q9WU38+Q9WU39)
Assay: Ussing Chamber assay (short circuit current, amiloride sensitive I_SC) in M-1 cells
Conditions: Mouse kidney M-1 cells, apical application, 37° C.; tested form: iodide
Description: The IC50 values of the example compounds given above were determined in the Ussing Chamber assay.
Ussing Chamber: Mouse kidney M-1 cells were cultivated in DMEM containing 5% FCS and 5 μM dexamethasone for 10 to 12 days on polyester transwell filters. Filters were inserted into a teflon-coated well-plate which fit into the ussing chamber system. Prior to measurement the medium of M-1 cells was replaced with Caco-2 transport buffer (Invitrogen, Germany). During measurements, the Ussing chamber temperature was kept at 37° C. Short circuit currents (I_sc) were measured in the voltage-clamp mode with the software package Lab View for data acquisition and analysis. The transepithelial electrical resistance (TEER) was determined by the application of voltage steps of ±5 mV every 5 sec. Compounds were administered at a final concentration of 3 μM or at increasing concentrations (1-3-10 μM) to the apical solution. At the end of each experiment the amiloride sensitive I_SC was measured by adding 3 μM amiloride to the apical compartment. Results are expressed as inhibition in percent of the amiloride effect or as IC50.

## CCn1c(CNC(=O)c2nc(Cl)c(N)nc2N)[n+](CC)c2ccc(OCCNC(=O)[C@H](C)NC(=O)OC(C)(C)C)cc21
  pIC50: 9.00
